Test results published in patent US20160206726A1, “IMMUNOTHERAPY” (priority 2013, published 2016).

How the values were obtained:
Assay type in all cases: in vitro ADME, human
LCLs (tumour B cells) = assay: Plasma stability of cyclic peptide in LCL model (IFN-γ T cell recognition after plasma treatment)
Protocol: LCLs (tumour B cells) were incubated with or without a protease inhibitor cocktail (PIC) for 2 hrs at 37° C. 10 ug cyclic peptide or 10 ug linear peptide which had been treated for 4 hrs @ 37° C. with human plasma, was added to PIC treated or untreated cells. The cyclic peptide was the same as that described in Example 1. These cells were incubated with peptide-specific T cells overnight and IFN-γ assayed for T cell recognition of the processed peptide.

[1] = tested on: SW620 cells (colorectal cell line); assay: Plasma stability of cyclic peptide in colorectal cancer model (IFN-γ T cell recognition after plasma treatment)
Protocol: (§1) SW620 cells (colorectal cell line) were incubated with 10 ug cyclic peptide or 10 ug linear peptide which had been treated for 2 hrs @ 37° C. with human plasma. These cells were incubated with peptide-specific T cells overnight and IFN-γ assayed for T cell recognition of the processed peptide. The cyclic peptide was the same as that described in Example 1.

LCL target cells = assay: Comparison of the plasma stability of cyclic peptide and APEC in LCL model (IFN-γ T cell recognition after plasma treatment)
Protocol: as §1, with “10” for “SW620 cells (colorectal cell line) were incubated with 10”, “APEC,” for “linear peptide”, “4” for “2”, “plasma, was added to target cells.” for “plasma.”

## FRGGANLVPMVATVAA [cyclic peptide]
LCLs (tumour B cells); LCLs, 10 ug peptide treated 4 hrs at 37° C with human plasma
  T cell response (IFN-γ) to target cells after plasma treatment of the peptide: decreased the responses but there is clearly still a response
LCLs (tumour B cells); human plasma 37° C, readout T cell response to LCLs
  time the peptide is stable in plasma: at least 4 hours
[1]; SW620 cells, 10 ug peptide treated 2 hrs at 37° C with human plasma
  decrease of the T cell response by serum treatment: ~60%
[1]; human plasma 37° C, readout T cell response to SW620 cells
  time the peptide is stable in plasma: at least 2 hours
LCL target cells; LCL model, 10 ug treated 4 hrs at 37° C with human plasma
  decrease of the T cell response by serum treatment compared with untreated agent: ~50%
LCL target cells; human plasma 37° C, readout T cell response in LCL model
  time the peptide is stable in plasma: at least 4 hours
